Here are results for two compounds from patent US20120135089A1, “E3 LIGASE INHIBITORS” (priority 2009, published 2012).

The test system of assay [1] is Mdm2-ubiquitin conjugates. The assay is described as follows: cell-based Mdm2 ubiquitination assay (HA-ubiquitin immunoprecipitation). The settings on record: Mdm2-luciferase cells, with 10 μM MG132. Further details: species or system human. On the procedure:
To obtain the results shown in FIG. 4A, Mdm2-luciferase cells were transfected with ubiquitin-HA and treated 8 hours later with 10 μg/ml (28 μM) MEL23, 10 μg/ml (31 μM) MEL24, or a DMSO control. After 16 hours, cells were additionally treated with 10 μM MG132 or a DMSO control. After 3 hours, cells were lysed and immunoprecipitated for 3 hours with anti-HA affinity matrix. Total lysates and immunoprecipitated samples were analyzed by Western blotting using anti-Mdm2 antibody. NT indicates a no treatment control. […] After 8 hours, cells were treated with 10 μg/ml (28 μM) MEL23, 10 μg/ml (31 μM) MEL24, or a DMSO control. After 16 hours, cells were additionally treated with 10 μM MG132 or a DMSO control. After 3 hours cells were lysed and analyzed by Western blotting using anti-p53 antibody. […]
The Mdm2-luciferase cell line was transfected with HA-ubiquitin and pre-treated with 10 μg/ml MEL23 or MEL24, followed by 10 μM MG132. […] Cells lysates were immunoprecipitated with an anti-HA antibody and analyzed by Western blotting. […]
Briefly, Mdm2-luciferase cells were transfected with HA-ubiquitin. […] Input lysates and immunoprecipitated samples were analyzed by Western blotting using anti-Mdm2 antibody.
Referring now to FIG. 28d, as shown, MEL17 inhibits Mdm2 auto-ubiquitination in a cell-based assay. […] Input lysates and immunoprecipitated samples were analyzed by Western blotting using anti-Mdm2 antibody. […]

The test system of assay [2] is 12 tumor cell lines. The assay is described as follows: hollow-fiber assay. The class given is in vivo, mouse. Particulars: out of a possible score of 96 (12 cell lines×2 concentrations×2 sites×a score of 2). The method, then:
MEL17 was also sent to the National Institutes of Health (NIH) for analysis in the NCl60 screen. This is a service provide by the NIH, that tests novel compounds for killing in 60 tumor cell lines. […] It was then tested in a hollow-fiber assay. 12 tumor cell lines were tested in two concentrations and at two sites, subcutaneous implants and intraperitoneal implants. A 50% or greater reduction in percent net growth in the treated samples compared to the vehicle control was considered a positive result, and given a score of 2. Out of a possible score of 96 (12 cell lines×2 concentrations×2 sites×a score of 2), MEL17 got a score of 4.

The structures appear in SMILES notation.

As for `COc1cc(OC)c2c(=O)cc(-c3ccc(OC)c(-c4c(OC)cc(OC)c5c(=O)cc(-c6ccccc6)oc45)c3)oc2c1`, the “Mdm2 ubiquitination in cells (Mdm2-ubiquitin conjugates)” value in assay [1] is listed as “did not inhibit”. `CC1CCN(Cc2cc(Cl)c3cccnc3c2O)CC1` returned a hollow-fiber assay score in assay [2] of 4.
